Data taken from US12528818B2, “Compositions and methods for inhibition of RAS” (Leidos Biomedical Research, Inc., priority 2021, dated 2026).

How the values were obtained:
[1] = target: GppNHp-loaded KRAS4b (amino acids 1-169) G12C/C118S protein (Homo sapiens, UniProt P01116, C118S/G12C); test: Covalent cysteine 12 modification by MALDI-TOF MS, GppNHp-loaded KRAS G12C; assay type: biochemical; conditions: 15 minutes reaction time
[2] = target: GDP-loaded KRAS4b (amino acids 1-169) G12C/C118S protein (Homo sapiens, UniProt P01116, C118S/G12C); test: Covalent cysteine 12 modification by MALDI-TOF MS, GDP-loaded KRAS G12C; assay type: biochemical; conditions: 15 minutes reaction time
[3] = target: Avi-KRAS G12C (1-169) GppNHp/RAF1 RBD-3xFLAG (52-151) (Homo sapiens, UniProt P01116, G12C); test: biochemical; conditions: Raf1-GppNHp-KRAS G12C disruption, Raf1 RBD-KRAS G12C-GppNHp disruption assay IC50
[4] = compounds 94 or before using 5 μM proteins
[5] = compound 95 or later using 1 μM proteins

| GppNHp-KRAS G12C percent of modification [1, 4] | GDP-KRAS G12C percent of modification [2, 4] | IC50 [3] [µM] | GppNHp-KRAS G12C percent of modification [1, 5] | GDP-KRAS G12C percent of modification [2, 5] | Structure (SMILES) |
| --- | --- | --- | --- | --- | --- |
| – | – | > 20 | D (percent of modification <10%) | D (percent of modification <10%) | C=CC(=O)N1C[C@H](N(C)c2ncnc3c(F)c(-c4ccc(F)c5sc(N)nc45)c(C(F)(F)F)cc23)C[C@H]1C (atropisomer, axis not shown) [Compound 251] |
| – | – | < 0.5 | C (10%≤percent of modification <50%) | C (10%≤percent of modification <50%) | C=CC(=O)N1C[C@H](C)N(c2nc(OC[C@@]34CCCN3C[C@H](OC)C4)nc3c(F)c(-c4ccc(F)c5sc(N)nc45)c(C(F)(F)F)cc23)C[C@H]1C (atropisomer, axis not shown) [Compound 289] |
| – | – | < 0.5 | B (50≤percent of modification <70%) | A (percent of modification ≥70%) | C=CC(=O)N1CC[C@@H](N(C)c2nc(OC[C@@]34CCCN3C[C@H](F)C4)nc3c(F)c(-c4ccc(F)c5sc(N)nc45)c(OC(F)(F)F)cc23)C1 [Compound 238, 1-((3R)-3-((7-(2-amino-7-fluorobenzo[d]thiazol-4-yl)-8-fluoro-2-(((2R,7aS)-2-fluorotetrahydro-1H-pyrrolizin-7a(5H)-yl)methoxy)-6-(trifluoromethoxy)quinazolin-4-yl)(methyl)amino)pyrrolidin-1-yl)prop-2-en-1-one] |
| – | – | > 20 | D (percent of modification <10%) | B (50≤percent of modification <70%) | C=CC(=O)N1C[C@H](N(C)c2ncnc3c(F)c(-c4ccc(F)c5sc(N)nc45)c(C(F)(F)F)cc23)C2(CC2)C1 (atropisomer, axis not shown) [Compound 263] |
| – | – | 0.5 to 5 | D (percent of modification <10%) | B (50≤percent of modification <70%) | C=CC(=O)N1CCN(c2nc(OC[C@@]34CCCN3C[C@@H](F)C4)nc3c(F)c(-c4ccc(F)c5sc(N)nc45)c(C(F)(F)F)cc23)[C@H](C)C1 [Compound 217] |
| – | – | < 0.5 | D (percent of modification <10%) | A (percent of modification ≥70%) | C=CC(=O)N1CC[C@@H](N(C)c2nc(OC[C@@H]3C[C@@H](F)CN3C)nc3c(F)c(-c4ccc(F)c5sc(N)nc45)c(C(F)(F)F)cc23)C1 (atropisomer, axis not shown) [Compound 231] |
| – | – | 0.5 to 5 | D (percent of modification <10%) | D (percent of modification <10%) | C=CC(=O)N1CCN(c2nc(OCC34CCCN3CCC4)nc3c(F)c(-c4ccc(F)c5sc(N)nc45)c(C(C)(F)F)cc23)CC1 [Compound 284] |
| – | – | > 20 | D (percent of modification <10%) | C (10%≤percent of modification <50%) | C=CC(=O)N1CC(N(c2nc(OC[C@]34CCCN3C[C@H](F)C4)nc3c(F)c(-c4ccc(F)c5sc(N)nc45)c(Cl)cc23)C2CC2)C1 [Compound 210] |
| – | – | < 0.5 | C (10%≤percent of modification <50%) | A (percent of modification ≥70%) | C=CC(=O)N1CCN(c2nc(OCC34CCCN3CCC4)nc3c(F)c(-c4ccc(F)c5sc(N)nc45)c(C(F)F)cc23)CC1 [Compound 246] |
| – | – | > 20 | D (percent of modification <10%) | D (percent of modification <10%) | C=CC(=O)N1CC[C@@H](N(C)c2nc(OC[C@@H]3CC(F)(F)CN3C)nc3c(F)c(-c4ccc(F)c5sc(N)nc45)c(C(F)(F)F)cc23)C1 (atropisomer, axis not shown) [Compound 229] |

The remaining lines, values behind:

| Structure (SMILES) | GppNHp-KRAS G12C percent of modification [1, 4] | GDP-KRAS G12C percent of modification [2, 4] | IC50 [3] [µM] | GppNHp-KRAS G12C percent of modification [1, 5] | GDP-KRAS G12C percent of modification [2, 5] |
| --- | --- | --- | --- | --- | --- |
| C=CC(=O)N1CC(Nc2nc(OC[C@@H]3C[C@@H](OC)CN3C)nc3c(F)c(-c4ccc(F)c5sc(N)nc45)c(Cl)cc23)C1 [Compound 36] | A (percent of modification ≥70%) | A (percent of modification ≥70%) | < 0.5 | – | – |
| C=CC(=O)N1CCCC12CN(c1nc(OC[C@@H]3CCCN3C)nc3c(F)c(-c4ccc(F)c5sc(N)nc45)c(Cl)cc13)C2 [Compound 46] | D (percent of modification <10%) | B (50≤percent of modification <70%) | > 20 | – | – |
| C=CC(=O)N1CCN(c2nc(OCC3CCCN3C)nc3c(F)c(-c4ccc(F)c5sc(N)nc45)c(C4(C#N)CCC4)cc23)CC1 (stereo not drawn) [Compound 183] | – | – | 5 to 20 | D (percent of modification <10%) | C (10%≤percent of modification <50%) |
| C=CC(=O)N1CC[C@@H](N(C)c2nc(OC[C@@]34CCCN3C[C@H](F)C4)nc3c(F)c(-c4ccc(F)c5sc(N)nc45)c(Cl)cc23)C1 [Compound 195, 1-((3R)-3-((7-(2-amino-7-fluorobenzo[d]thiazol-4-yl)-6-chloro-8-fluoro-2-(((2R,7aS)-2-fluorotetrahydro-1H-pyrrolizin-7a(5H)-yl)methoxy)quinazolin-4-yl)(methyl)amino)pyrrolidin-1-yl)prop-2-en-1-one] | – | – | < 0.5 | C (10%≤percent of modification <50%) | C (10%≤percent of modification <50%) |
| CC#CC(=O)N1CC[C@@H]2[C@H]1CN2c1nc(OCC23CCCN2CCC3)nc2c(F)c(-c3ccc(F)c4sc(N)nc34)c(C(F)(F)F)cc12 [Compound 180] | – | – | 0.5 to 5 | D (percent of modification <10%) | C (10%≤percent of modification <50%) |
| C=CC(=O)N1CCN(c2ncnc3c(F)c(-c4ccc(F)c5sc(N)nc45)cc(OC)c23)CC1 [Compound 68] | D (percent of modification <10%) | B (50≤percent of modification <70%) | > 20 | – | – |
| CC#CC(=O)N1CCN(c2nc(OC[C@@H]3CCCN3CC(F)F)nc3c(F)c(-c4ccc(F)c5sc(N)nc45)c(C(F)(F)F)cc23)CC1 [Compound 158] | – | – | > 20 | D (percent of modification <10%) | C (10%≤percent of modification <50%) |
| C=CC(=O)N1CC(N(CCC#N)c2nc(OC[C@@H]3CCCN3C)nc3c(F)c(-c4ccc(F)c5sc(N)nc45)c(Cl)cc23)C1 [Compound 141] | – | – | 0.5 to 5 | D (percent of modification <10%) | A (percent of modification ≥70%) |
| C=CC(=O)N1CCN(c2nc(OC[C@]34CCCN3C[C@H](F)C4)nc3c(F)c(-c4ccc(F)c5sc(N)nc45)c(C(F)(F)F)cc23)C[C@@H]1C [Compound 165] | – | – | < 0.5 | C (10%≤percent of modification <50%) | A (percent of modification ≥70%) |
| CN(C)C(=O)/C=C/C(=O)N1CC(Nc2ncnc3c(F)c(-c4ccc(F)c5sc(N)nc45)c(Cl)cc23)C1 [Compound 62] | D (percent of modification <10%) | C (10%≤percent of modification <50%) | > 20 | – | – |
| CC#CC(=O)N1CCN(c2nc(OC[C@@H]3CCCN3CCF)nc3c(F)c(-c4ccc(F)c5sc(N)nc45)c(C(F)(F)F)cc23)CC1 [Compound 154] | – | – | > 20 | D (percent of modification <10%) | B (50≤percent of modification <70%) |
| C=CC(=O)N1CCN(c2nc(OCC34CCCN3CCC4)nc3c(F)c(-c4ccc(F)c5sc(N)nc45)c(-c4ccoc4)cc23)CC1 [Compound 119] | – | – | 0.5 to 5 | C (10%≤percent of modification <50%) | A (percent of modification ≥70%) |
| C=CC(=O)N1CC(Nc2nc(OC[C@@H]3CCCN3C)nc3c(F)c(-c4ccc(F)c5sc(N)nc45)c(-c4ccoc4)cc23)C1 [Compound 93] | A (percent of modification ≥70%) | A (percent of modification ≥70%) | < 0.5 | – | – |
| C=CC(=O)N1CCN(c2ncnc3c(F)c(-c4ccc(F)c5sc(N)nc45)c(C(F)(F)F)cc23)CC1 [Compound 42, 1-(4-(7-(2-amino-7-fluorobenzo[d]thiazol-4-yl)-8-fluoro-6-(trifluoromethyl)quinazolin-4-yl)piperazin-1-yl)prop-2-en-1-one] | D (percent of modification <10%) | A (percent of modification ≥70%) | 5 to 20 | – | – |
| C=CC(=O)N1CCN(c2nc(OC[C@@]34CCCN3C[C@H](F)C4)nc3c(F)c(-c4ccc(F)c5sc(N)nc45)c(C(F)(F)F)cc23)[C@@H](C)C1 [Compound 189] | – | – | < 0.5 | C (10%≤percent of modification <50%) | B (50≤percent of modification <70%) |
| C=CC(=O)N1CC(Nc2nc(C3CCN(C)CC3)nc3c(F)c(-c4ccc(F)c5sc(N)nc45)c(Cl)cc23)C1 [Compound 60] | B (50≤percent of modification <70%) | A (percent of modification ≥70%) | 0.5 to 5 | – | – |
| C=CC(=O)N1CCN(c2nc(OC[C@@H]3C[C@@H](F)CN3C)nc3c(F)c(-c4ccc(F)c5sc(N)nc45)c(-c4ccoc4)cc23)CC1 [Compound 99] | – | – | 0.5 to 5 | D (percent of modification <10%) | B (50≤percent of modification <70%) |
